# Biological target: T1, α-mannosidase (jackbean) (Canavalia ensiformis, UniProt C0HJB3)
# T1 construct: purchased Sigma Chemical Company
# T1 sequence (C0HJB3 1-562 limits assumed): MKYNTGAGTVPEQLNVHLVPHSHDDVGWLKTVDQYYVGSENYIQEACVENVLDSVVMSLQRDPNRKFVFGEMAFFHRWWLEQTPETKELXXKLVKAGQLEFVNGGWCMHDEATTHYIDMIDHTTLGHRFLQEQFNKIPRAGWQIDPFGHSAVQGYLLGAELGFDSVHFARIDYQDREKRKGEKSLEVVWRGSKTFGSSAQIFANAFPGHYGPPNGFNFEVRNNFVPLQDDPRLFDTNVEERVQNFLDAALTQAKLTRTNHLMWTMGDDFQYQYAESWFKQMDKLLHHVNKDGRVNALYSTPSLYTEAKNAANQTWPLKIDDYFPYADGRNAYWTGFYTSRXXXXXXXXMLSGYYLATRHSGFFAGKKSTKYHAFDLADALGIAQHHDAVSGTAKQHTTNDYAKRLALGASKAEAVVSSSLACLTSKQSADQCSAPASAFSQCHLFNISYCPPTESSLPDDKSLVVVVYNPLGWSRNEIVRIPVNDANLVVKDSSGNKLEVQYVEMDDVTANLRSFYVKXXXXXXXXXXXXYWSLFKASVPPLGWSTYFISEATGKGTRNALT
# T1 sequence (C0HJB3 563-981 limits assumed): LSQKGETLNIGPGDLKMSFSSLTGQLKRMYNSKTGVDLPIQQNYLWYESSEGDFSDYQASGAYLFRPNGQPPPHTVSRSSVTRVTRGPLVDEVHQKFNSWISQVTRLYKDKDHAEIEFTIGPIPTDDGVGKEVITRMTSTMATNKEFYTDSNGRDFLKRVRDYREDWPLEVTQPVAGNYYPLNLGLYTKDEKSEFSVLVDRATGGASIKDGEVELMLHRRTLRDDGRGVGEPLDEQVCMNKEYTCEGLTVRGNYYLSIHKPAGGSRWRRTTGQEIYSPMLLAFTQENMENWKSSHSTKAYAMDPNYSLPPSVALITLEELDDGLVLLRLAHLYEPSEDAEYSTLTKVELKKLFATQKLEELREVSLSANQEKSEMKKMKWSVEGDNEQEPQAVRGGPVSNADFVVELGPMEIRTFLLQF
# Assay: α-mannosidase inhibition, p-nitrophenol-α-mannopyranoside substrate
# Format: biochemical
# Details: 25° C., citrate buffer 0.05M, pH 4.5; read-out: Ki (inhibition constant), α-Mannosidase
# Description: The enzymes α-glucosidase (yeast), β-glucosidase (almonds), isomaltase (bakers yeast) and α-mannosidase (jackbean) were purchased from Sigma Chemical Company. Glucoamylase was isolated by the present inventors by expressing the gene from Aspergillus awamori in yeast, by methods well known in the art. Enzyme assays were performed by using p-nitrophenol -α (or β)-glucopyranosides as substrate at 37° C. in phosphate buffer (0.05M, pH 6.8) for α (β)-glucosidase and isomaltase, and p-nitrophenol-α-mannopyranoside as substrate at 25° C. in citrate (0.05M, pH 4.5) buffer for α-mannosidase. Glucoamylase was assayed using maltose as substrate at 50° C. in sodium acetate buffer (0.05M, pH 4.5).
# Michaelis-Menten constant, Km, was calculated using software Grafit (Erithacus Software Ltd.). Ki was calculated by plotting K^appm vs. [Inhibitor]. FIG. 2(a) represents a plot of K^appm vs. [Inhibitor], wherein the inhibitor is the monosaccharide sugar analog isofagomin, obtained for five different glycosidases. FIG. 2(b) represents a similar plot of K^appm vs. [Inhibitor], wherein the inhibitor is the disaccharide sugar analog of formula II, obtained for five different glycosidases.
row,SMILES,Ki
1,"OC[C@H]1NC[C@@H](O)[C@@H](O)[C@@H]1O [Deoxymannojirimycin, reference compound]",278 µM
2,"OC[C@H]1NC[C@H](O)[C@@H](O)[C@@H]1O [Deoxynojirimycin, reference compound]",275 µM

# Reference: patent US5844102A, “Glycohydrolase inhibitors, their preparation and use thereof” (University of Maryland Baltimore County, priority 1994, dated 1998)
